From patent US20250145687A1, “MODIFIED LIGAND-GATED ION CHANNELS AND METHODS OF USE” (Howard Hughes Medical Institute, priority 2022, published 2025)

Protein sequences, listed by entry. Tags and fused reporters are not part of them. Lines headed by an entry give the natural chain unless they say otherwise; changes in a name come on top. Chains listed by the source or under a name are the forms on record and can include a tag or linker. Residues count along the entry.
UniProt P36544, 23-229 with tags or gaps L131G/M226I/Q139L/T225I/Y217F limits assumed: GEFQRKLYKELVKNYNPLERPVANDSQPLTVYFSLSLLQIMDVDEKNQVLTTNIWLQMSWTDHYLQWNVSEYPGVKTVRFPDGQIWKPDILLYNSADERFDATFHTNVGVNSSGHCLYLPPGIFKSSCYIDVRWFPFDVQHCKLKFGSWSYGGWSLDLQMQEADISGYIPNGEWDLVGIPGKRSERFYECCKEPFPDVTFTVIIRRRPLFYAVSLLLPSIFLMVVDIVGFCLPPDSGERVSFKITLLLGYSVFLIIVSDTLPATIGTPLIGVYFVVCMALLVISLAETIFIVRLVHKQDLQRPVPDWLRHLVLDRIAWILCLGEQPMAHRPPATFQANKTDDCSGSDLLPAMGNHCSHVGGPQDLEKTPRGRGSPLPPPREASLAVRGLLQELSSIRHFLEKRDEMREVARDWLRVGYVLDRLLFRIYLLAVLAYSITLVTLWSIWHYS
UniProt P36544, 23-229 with tags or gaps L131G/M226I/Q139L/T225I/W171F limits assumed: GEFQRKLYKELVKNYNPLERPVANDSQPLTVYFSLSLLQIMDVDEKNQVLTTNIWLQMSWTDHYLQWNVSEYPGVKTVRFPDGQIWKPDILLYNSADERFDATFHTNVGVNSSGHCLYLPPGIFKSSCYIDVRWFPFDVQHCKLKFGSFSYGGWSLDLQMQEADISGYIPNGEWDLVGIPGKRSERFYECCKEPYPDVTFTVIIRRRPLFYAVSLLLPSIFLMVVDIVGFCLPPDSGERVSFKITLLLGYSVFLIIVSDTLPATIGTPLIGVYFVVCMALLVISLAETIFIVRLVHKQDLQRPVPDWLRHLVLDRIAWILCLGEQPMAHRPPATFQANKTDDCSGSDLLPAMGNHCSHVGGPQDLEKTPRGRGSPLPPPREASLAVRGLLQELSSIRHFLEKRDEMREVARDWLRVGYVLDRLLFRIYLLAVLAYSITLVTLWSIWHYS
UniProt P36544, 23-229 with tags or gaps L131G/M226I/Q139L/T225I/W171Y limits assumed: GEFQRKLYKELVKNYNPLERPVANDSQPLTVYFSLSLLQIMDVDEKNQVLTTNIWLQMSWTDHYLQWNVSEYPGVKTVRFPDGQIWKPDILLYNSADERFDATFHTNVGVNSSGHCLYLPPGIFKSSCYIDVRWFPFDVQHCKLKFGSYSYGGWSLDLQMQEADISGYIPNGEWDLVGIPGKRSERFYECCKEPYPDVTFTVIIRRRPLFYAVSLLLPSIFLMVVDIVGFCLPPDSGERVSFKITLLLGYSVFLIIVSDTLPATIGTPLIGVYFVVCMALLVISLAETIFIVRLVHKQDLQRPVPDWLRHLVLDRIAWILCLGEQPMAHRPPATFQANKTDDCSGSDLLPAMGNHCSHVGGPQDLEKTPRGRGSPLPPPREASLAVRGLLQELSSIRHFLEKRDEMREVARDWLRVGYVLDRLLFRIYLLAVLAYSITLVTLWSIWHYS
UniProt P36544, 23-229 with tags or gaps L131G/M226I/Q139L/T225I/Y217A limits assumed: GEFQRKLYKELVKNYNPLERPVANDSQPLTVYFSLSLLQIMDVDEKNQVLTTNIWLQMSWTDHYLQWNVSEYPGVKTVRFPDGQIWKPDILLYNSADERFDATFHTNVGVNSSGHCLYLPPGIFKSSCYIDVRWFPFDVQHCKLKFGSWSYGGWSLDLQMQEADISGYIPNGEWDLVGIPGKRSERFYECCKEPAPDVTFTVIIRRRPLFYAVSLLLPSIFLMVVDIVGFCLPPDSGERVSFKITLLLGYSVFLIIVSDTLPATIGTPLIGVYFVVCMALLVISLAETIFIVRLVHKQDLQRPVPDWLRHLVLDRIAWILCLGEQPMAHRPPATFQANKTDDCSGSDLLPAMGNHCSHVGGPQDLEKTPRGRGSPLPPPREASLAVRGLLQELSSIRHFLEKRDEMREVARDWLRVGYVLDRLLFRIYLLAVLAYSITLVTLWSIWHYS
UniProt P36544, 23-229 with tags or gaps L131G/M226I/Q139L/T225I/Y217H limits assumed: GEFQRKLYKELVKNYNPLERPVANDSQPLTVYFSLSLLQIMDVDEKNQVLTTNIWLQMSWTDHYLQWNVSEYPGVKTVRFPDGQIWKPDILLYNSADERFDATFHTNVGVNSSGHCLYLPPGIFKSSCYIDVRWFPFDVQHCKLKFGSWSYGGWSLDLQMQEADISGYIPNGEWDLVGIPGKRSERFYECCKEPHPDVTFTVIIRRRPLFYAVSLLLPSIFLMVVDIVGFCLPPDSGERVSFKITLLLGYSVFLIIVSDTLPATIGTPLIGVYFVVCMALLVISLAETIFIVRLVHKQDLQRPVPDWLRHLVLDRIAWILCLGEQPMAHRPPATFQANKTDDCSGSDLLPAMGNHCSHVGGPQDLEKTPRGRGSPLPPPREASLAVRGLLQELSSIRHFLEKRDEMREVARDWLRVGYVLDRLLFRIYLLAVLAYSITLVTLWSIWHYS
UniProt P36544, 23-229 with tags or gaps L131G/M226I/Q139L/T225I/Y217N limits assumed: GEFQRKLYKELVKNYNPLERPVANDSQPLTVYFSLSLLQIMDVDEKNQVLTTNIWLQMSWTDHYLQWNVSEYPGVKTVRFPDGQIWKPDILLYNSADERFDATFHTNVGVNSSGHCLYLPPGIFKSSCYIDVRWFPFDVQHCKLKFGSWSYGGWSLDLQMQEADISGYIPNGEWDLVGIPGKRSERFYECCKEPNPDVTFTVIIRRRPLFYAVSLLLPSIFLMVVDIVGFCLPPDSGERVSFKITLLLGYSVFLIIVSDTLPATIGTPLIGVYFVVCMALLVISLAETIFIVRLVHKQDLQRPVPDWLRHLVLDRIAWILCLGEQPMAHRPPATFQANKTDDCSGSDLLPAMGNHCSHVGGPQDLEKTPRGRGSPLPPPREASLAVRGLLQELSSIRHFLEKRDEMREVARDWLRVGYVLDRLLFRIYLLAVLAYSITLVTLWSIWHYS
UniProt P36544, 23-229 with tags or gaps L131G/M226I/Q139L/T225I/Y217V limits assumed: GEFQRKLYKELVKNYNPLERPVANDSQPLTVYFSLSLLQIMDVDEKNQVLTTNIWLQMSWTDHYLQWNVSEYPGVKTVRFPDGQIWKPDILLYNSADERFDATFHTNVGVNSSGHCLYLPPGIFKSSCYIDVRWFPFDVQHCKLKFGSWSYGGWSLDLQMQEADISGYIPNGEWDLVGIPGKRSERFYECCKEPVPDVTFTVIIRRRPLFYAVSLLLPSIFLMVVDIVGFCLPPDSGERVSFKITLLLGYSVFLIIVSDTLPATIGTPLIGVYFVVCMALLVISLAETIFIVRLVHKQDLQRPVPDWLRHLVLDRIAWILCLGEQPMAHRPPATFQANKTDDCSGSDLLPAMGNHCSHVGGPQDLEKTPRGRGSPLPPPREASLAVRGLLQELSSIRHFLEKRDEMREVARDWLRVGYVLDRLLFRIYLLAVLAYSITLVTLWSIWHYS
UniProt P36544, 23-229 with tags or gaps H163A/L131G/M226I/Q139L/T225I/Y217F limits assumed: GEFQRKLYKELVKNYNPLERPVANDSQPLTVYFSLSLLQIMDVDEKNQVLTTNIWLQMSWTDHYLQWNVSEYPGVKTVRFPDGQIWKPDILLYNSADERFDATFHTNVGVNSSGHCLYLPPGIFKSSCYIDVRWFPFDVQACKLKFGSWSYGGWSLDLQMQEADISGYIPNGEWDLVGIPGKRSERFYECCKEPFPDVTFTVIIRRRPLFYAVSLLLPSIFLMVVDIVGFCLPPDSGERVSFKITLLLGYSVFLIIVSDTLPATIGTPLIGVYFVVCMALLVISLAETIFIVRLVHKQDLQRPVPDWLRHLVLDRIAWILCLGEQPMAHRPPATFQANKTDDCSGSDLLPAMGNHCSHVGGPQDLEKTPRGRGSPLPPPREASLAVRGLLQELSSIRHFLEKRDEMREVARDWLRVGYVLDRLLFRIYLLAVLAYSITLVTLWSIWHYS
UniProt P36544, 23-229 with tags or gaps H163D/L131G/M226I/Q139L/T225I/Y217F limits assumed: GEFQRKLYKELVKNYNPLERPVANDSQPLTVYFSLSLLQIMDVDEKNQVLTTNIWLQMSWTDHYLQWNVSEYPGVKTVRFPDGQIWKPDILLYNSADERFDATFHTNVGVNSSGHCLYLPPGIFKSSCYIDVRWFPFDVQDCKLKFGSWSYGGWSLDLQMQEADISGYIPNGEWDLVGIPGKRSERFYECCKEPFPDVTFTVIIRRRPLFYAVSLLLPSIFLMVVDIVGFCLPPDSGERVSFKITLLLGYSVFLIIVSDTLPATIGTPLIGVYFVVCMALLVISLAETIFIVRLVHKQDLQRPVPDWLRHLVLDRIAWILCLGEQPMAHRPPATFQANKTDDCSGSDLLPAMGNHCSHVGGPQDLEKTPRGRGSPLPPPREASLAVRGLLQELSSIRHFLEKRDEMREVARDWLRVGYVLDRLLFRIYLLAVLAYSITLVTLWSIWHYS
UniProt P36544, 23-229 with tags or gaps H163F/L131G/M226I/Q139L/T225I/Y217F limits assumed: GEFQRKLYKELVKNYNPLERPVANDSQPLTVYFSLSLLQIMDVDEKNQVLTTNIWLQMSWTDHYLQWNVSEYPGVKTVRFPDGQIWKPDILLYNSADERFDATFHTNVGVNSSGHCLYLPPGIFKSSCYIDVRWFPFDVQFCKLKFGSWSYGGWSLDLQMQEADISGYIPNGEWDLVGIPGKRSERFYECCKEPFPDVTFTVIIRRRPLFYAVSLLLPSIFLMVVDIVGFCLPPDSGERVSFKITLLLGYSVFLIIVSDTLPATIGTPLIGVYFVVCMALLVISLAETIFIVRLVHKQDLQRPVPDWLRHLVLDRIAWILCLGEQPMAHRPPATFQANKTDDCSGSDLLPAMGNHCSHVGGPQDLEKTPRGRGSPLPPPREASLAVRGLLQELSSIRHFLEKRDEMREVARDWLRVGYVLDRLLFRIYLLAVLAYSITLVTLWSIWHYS
UniProt P36544, 23-229 with tags or gaps H163K/L131G/M226I/Q139L/T225I/Y217F limits assumed: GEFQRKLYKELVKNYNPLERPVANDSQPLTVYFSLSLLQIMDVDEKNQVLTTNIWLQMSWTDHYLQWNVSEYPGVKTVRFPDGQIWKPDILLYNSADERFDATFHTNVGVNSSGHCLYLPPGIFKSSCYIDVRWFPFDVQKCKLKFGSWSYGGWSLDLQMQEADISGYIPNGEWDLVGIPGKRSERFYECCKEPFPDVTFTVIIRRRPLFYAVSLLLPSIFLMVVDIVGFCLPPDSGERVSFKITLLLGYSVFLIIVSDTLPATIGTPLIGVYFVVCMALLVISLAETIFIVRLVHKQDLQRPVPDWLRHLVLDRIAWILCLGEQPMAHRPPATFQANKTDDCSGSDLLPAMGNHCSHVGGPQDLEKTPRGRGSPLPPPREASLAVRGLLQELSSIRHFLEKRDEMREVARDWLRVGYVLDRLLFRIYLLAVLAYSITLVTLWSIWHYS
UniProt P36544, 23-229 with tags or gaps H163N/L131G/M226I/Q139L/T225I/Y217F limits assumed: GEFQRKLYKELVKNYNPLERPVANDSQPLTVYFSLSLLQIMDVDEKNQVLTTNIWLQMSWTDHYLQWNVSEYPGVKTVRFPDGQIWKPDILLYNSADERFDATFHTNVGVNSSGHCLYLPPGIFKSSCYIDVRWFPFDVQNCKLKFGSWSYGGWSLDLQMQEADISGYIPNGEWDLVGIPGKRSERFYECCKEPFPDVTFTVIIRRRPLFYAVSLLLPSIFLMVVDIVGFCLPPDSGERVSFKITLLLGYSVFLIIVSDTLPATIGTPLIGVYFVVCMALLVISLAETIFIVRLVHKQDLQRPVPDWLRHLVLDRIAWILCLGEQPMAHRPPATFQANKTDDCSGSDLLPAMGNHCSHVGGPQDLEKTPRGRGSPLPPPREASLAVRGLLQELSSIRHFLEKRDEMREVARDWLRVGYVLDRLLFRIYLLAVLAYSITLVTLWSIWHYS
UniProt P36544, 23-229 with tags or gaps H163R/L131G/M226I/Q139L/T225I/Y217F limits assumed: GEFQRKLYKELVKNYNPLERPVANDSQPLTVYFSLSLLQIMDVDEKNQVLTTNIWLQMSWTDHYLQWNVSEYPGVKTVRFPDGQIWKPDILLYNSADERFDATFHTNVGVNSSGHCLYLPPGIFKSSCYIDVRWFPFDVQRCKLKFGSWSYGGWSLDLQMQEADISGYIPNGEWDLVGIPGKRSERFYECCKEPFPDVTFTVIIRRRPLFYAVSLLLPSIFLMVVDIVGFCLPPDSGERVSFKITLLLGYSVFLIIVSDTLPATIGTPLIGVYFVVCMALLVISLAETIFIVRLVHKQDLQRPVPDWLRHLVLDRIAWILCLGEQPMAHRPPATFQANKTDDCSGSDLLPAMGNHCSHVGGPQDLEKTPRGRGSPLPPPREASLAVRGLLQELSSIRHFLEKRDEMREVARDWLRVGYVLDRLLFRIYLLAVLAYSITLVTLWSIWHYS
UniProt P36544, 23-229 with tags or gaps H163S/L131G/M226I/Q139L/T225I/Y217F limits assumed: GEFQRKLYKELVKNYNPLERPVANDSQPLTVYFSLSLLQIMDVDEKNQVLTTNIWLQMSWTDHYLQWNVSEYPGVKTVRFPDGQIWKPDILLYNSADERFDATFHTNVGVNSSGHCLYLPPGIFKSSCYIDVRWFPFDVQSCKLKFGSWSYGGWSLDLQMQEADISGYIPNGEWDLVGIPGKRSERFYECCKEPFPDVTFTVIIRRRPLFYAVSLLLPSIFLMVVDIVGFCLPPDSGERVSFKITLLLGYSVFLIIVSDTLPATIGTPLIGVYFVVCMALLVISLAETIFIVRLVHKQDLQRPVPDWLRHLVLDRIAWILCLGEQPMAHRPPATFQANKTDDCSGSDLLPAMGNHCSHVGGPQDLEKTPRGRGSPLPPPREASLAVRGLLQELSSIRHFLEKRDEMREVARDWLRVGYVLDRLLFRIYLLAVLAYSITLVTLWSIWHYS

Tests used:
[1] = target: α7^L131G,Q139L,Y217F-5HT3 W156N (Homo sapiens, UniProt P36544, L131G/M226I/Q139L/T225I/W156N/Y217F); details: read-out: EC50s (SEM) for additional mutations of α7^L131G, Q139L, Y217F -5HT3; additional mutation W156N
[2] = target: PSAM4-5HT3 (α7-5HT3^L131G,Q139L,Y217F) (Homo sapiens, UniProt P36544, L131G/M226I/Q139L/T225I/Y217F); experiment: EC50 dose response of LGIC ligands on PSAM4-5HT3; assay type: cell-based; details: read-out: EC50s (SEM) for additional mutations of α7^L131G, Q139L, Y217F -5HT3
[3] = target: α7^L131G,Q139L,Y217F-5HT3 H163D (Homo sapiens, UniProt P36544, H163D/L131G/M226I/Q139L/T225I/Y217F); experiment: EC50 dose response, PSAM4-5HT3 with additional mutations; assay type: cell-based; details: read-out: EC50s (SEM) for additional mutations of α7^L131G, Q139L, Y217F -5HT3; additional mutation H163D
[4] = target: α7^L131G,Q139L,Y217F-5HT3 S172A (Homo sapiens, UniProt P36544, L131G/M226I/Q139L/S172A/T225I/Y217F); experiment: as above; assay type: cell-based; details: read-out: EC50s (SEM) for additional mutations of α7^L131G, Q139L, Y217F -5HT3; additional mutation S172A
[5] = target: α7^L131G,Q139L,Y217F-5HT3 H163F (Homo sapiens, UniProt P36544, H163F/L131G/M226I/Q139L/T225I/Y217F); experiment: as above; assay type: cell-based; details: read-out: EC50s (SEM) for additional mutations of α7^L131G, Q139L, Y217F -5HT3; additional mutation H163F
[6] = target: α7^L131G,Q139L,Y217F-5HT3 S172I (Homo sapiens, UniProt P36544, L131G/M226I/Q139L/S172I/T225I/Y217F); experiment: as above; assay type: cell-based; details: read-out: EC50s (SEM) for additional mutations of α7^L131G, Q139L, Y217F -5HT3; additional mutation S172I
[7] = target: α7^L131G,Q139L,Y217F-5HT3 V154L, R155Y, W156Q (Homo sapiens, UniProt P36544, L131G/M226I/Q139L/R155Y/T225I/V154L/W156Q/Y217F); experiment: as above; assay type: cell-based; details: read-out: EC50s (SEM) for additional mutations of α7^L131G, Q139L, Y217F -5HT3
[8] = target: α7^L131G,Q139L,Y217F-5HT3 H163A (Homo sapiens, UniProt P36544, H163A/L131G/M226I/Q139L/T225I/Y217F); experiment: as above; assay type: cell-based; details: read-out: EC50s (SEM) for additional mutations of α7^L131G, Q139L, Y217F -5HT3; additional mutation H163A
[9] = target: α7^L131G,Q139L,Y217F-5HT3 H163S (Homo sapiens, UniProt P36544, H163S/L131G/M226I/Q139L/T225I/Y217F); experiment: as above; assay type: cell-based; details: read-out: EC50s (SEM) for additional mutations of α7^L131G, Q139L, Y217F -5HT3; additional mutation H163S
[10] = target: α7^L131G,Q139L,Y217F-5HT3 H163K (Homo sapiens, UniProt P36544, H163K/L131G/M226I/Q139L/T225I/Y217F); experiment: as above; assay type: cell-based; details: read-out: EC50s (SEM) for additional mutations of α7^L131G, Q139L, Y217F -5HT3; additional mutation H163K
[11] = target: α7^L131G,Q139L,Y217F-5HT3 H163T, S172V (Homo sapiens, UniProt P36544, H163T/L131G/M226I/Q139L/S172V/T225I/Y217F); experiment: as above; assay type: cell-based; details: read-out: EC50s (SEM) for additional mutations of α7^L131G, Q139L, Y217F -5HT3
[12] = target: α7^L131G,Q139L,Y217F-5HT3 W156N, H163T (Homo sapiens, UniProt P36544, H163T/L131G/M226I/Q139L/T225I/W156N/Y217F); experiment: as above; assay type: cell-based; details: read-out: EC50s (SEM) for additional mutations of α7^L131G, Q139L, Y217F -5HT3
[13] = target: α7^L131G,Q139L,Y217F-5HT3 V154I, R155Y, W156N, S172A (Homo sapiens, UniProt P36544, L131G/M226I/Q139L/R155Y/S172A/T225I/V154I/W156N/Y217F); experiment: as above; assay type: cell-based; details: read-out: EC50s (SEM) for additional mutations of α7^L131G, Q139L, Y217F -5HT3
[14] = target: α7^L131G,Q139L,Y217F-5HT3 H163T, S172A (Homo sapiens, UniProt P36544, H163T/L131G/M226I/Q139L/S172A/T225I/Y217F); experiment: as above; assay type: cell-based; details: read-out: EC50s (SEM) for additional mutations of α7^L131G, Q139L, Y217F -5HT3
[15] = target: α7^L131G,Q139L,Y217F-5HT3 V154I, R155Y, W156N, S172V (Homo sapiens, UniProt P36544, L131G/M226I/Q139L/R155Y/S172V/T225I/V154I/W156N/Y217F); experiment: as above; assay type: cell-based; details: read-out: EC50s (SEM) for additional mutations of α7^L131G, Q139L, Y217F -5HT3
[16] = target: α7^L131G,Q139L,Y217F-5HT3 V154I, R155Y, W156N (Homo sapiens, UniProt P36544, L131G/M226I/Q139L/R155Y/T225I/V154I/W156N/Y217F); experiment: as above; assay type: cell-based; details: read-out: EC50s (SEM) for additional mutations of α7^L131G, Q139L, Y217F -5HT3
[17] = target: α7^L131G,Q139L,Y217F-5HT3 H163N (Homo sapiens, UniProt P36544, H163N/L131G/M226I/Q139L/T225I/Y217F); experiment: as above; assay type: cell-based; details: read-out: EC50s (SEM) for additional mutations of α7^L131G, Q139L, Y217F -5HT3; additional mutation H163N
[18] = target: α7^L131G,Q139L,Y217F-5HT3 H163T (Homo sapiens, UniProt P36544, H163T/L131G/M226I/Q139L/T225I/Y217F); experiment: as above; assay type: cell-based; details: read-out: EC50s (SEM) for additional mutations of α7^L131G, Q139L, Y217F -5HT3; additional mutation H163T
[19] = target: α7^L131G,Q139L,Y217F-5HT3 H163V (Homo sapiens, UniProt P36544, H163V/L131G/M226I/Q139L/T225I/Y217F); experiment: as above; assay type: cell-based; details: read-out: EC50s (SEM) for additional mutations of α7^L131G, Q139L, Y217F -5HT3; additional mutation H163V
[20] = target: α7^L131G,Q139L,Y217F-5HT3 H163R (Homo sapiens, UniProt P36544, H163R/L131G/M226I/Q139L/T225I/Y217F); experiment: as above; assay type: cell-based; details: read-out: EC50s (SEM) for additional mutations of α7^L131G, Q139L, Y217F -5HT3; additional mutation H163R
[21] = target: α7^L131G,Q139L,Y217F-5HT3 S172V (Homo sapiens, UniProt P36544, L131G/M226I/Q139L/S172V/T225I/Y217F); experiment: as above; assay type: cell-based; details: read-out: EC50s (SEM) for additional mutations of α7^L131G, Q139L, Y217F -5HT3; additional mutation S172V
[22] = target: α7-5HT3 L131G, Q139L, W171F (Homo sapiens, UniProt P36544, L131G/M226I/Q139L/T225I/W171F); experiment: EC50 dose response, α7-5HT3 mutant; assay type: cell-based; details: read-out: EC50s (SEM) for additional mutations of α7^L131G, Q139L, Y217F -5HT3
[23] = target: α7-5HT3 L131G, Q139L, Y217A (Homo sapiens, UniProt P36544, L131G/M226I/Q139L/T225I/Y217A); experiment: EC50 dose response, α7-5HT3 mutant; assay type: cell-based; details: read-out: EC50s (SEM) for additional mutations of α7^L131G, Q139L, Y217F -5HT3
[24] = target: α7-5HT3 L131G, Q139L, W171Y (Homo sapiens, UniProt P36544, L131G/M226I/Q139L/T225I/W171Y); experiment: EC50 dose response, α7-5HT3 mutant; assay type: cell-based; details: read-out: EC50s (SEM) for additional mutations of α7^L131G, Q139L, Y217F -5HT3
[25] = target: α7-5HT3 L131G, Q139L, Y217V (Homo sapiens, UniProt P36544, L131G/M226I/Q139L/T225I/Y217V); experiment: EC50 dose response, α7-5HT3 mutant; assay type: cell-based; details: read-out: EC50s (SEM) for additional mutations of α7^L131G, Q139L, Y217F -5HT3
[26] = target: α7-5HT3 L131G, Q139L, Y217N (Homo sapiens, UniProt P36544, L131G/M226I/Q139L/T225I/Y217N); experiment: EC50 dose response, α7-5HT3 mutant; assay type: cell-based; details: read-out: EC50s (SEM) for additional mutations of α7^L131G, Q139L, Y217F -5HT3
[27] = target: α7-5HT3 L131G, Q139L, Y217H (Homo sapiens, UniProt P36544, L131G/M226I/Q139L/T225I/Y217H); experiment: EC50 dose response, α7-5HT3 mutant; assay type: cell-based; details: read-out: EC50s (SEM) for additional mutations of α7^L131G, Q139L, Y217F -5HT3

Cn1c(=O)cnc2cc3c(cc21)C1CNCC3C1 (stereo not shown)
EC50 [1]: 11 nM
EC50 ([2]; PSAM4-5HT3 (no additional mutation)): 3.9 nM
EC50 ([2]; line L131G, Q139L, Y217F (same values as PSAM4-5HT3 line)): 3.9 nM
EC50 [3]: 12 nM
EC50 [4]: 6.4 nM
EC50 [5]: 9.8 nM
EC50 [6]: 12 nM
EC50 [7]: 12.6 nM
EC50 [8]: 5.1 nM
EC50 [9]: 8.6 nM
EC50 [10]: 8.6 nM
EC50 [11]: 5.4 nM
EC50 [12]: 13 nM
EC50 [13]: 15 nM
EC50 [14]: 11 nM
EC50 [15]: 25 nM
EC50 [16]: 8.5 nM
EC50 [17]: 6.3 nM
EC50 [18]: 12 nM
EC50 [19]: 7.2 nM
EC50 [20]: 7.2 nM
EC50 [21]: 4.3 nM
EC50 [22]: > 100 nM
EC50 [23]: 22 nM
EC50 [24]: > 100 nM
EC50 [25]: > 100 nM
EC50 [26]: > 100 nM
EC50 [27]: 12.2 nM

Where two headings read alike, the source gives them in different places.
